Hits are enriched below; roughly 2.3% of the tested compounds scored in any of these assays.
Nrf2 activator = activates Nrf2 signaling | AREc32 ARE-luciferase reporter (MCF7-derived line), luminescence, 24 h | Potency, µM (series often up to 46.1 µM), inactives show top-dose activation, usual class: activators | 410,000 compounds, 0.31% hits; note: potency is the fitted concentration of half-maximal effect; % of control where 0% means no effect; nearly all actives have a fitted effect of over 65% in size
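Reporter line AREc32 (ARE-Fluc), seeded overnight in OPTI-MEM with 5% FBS; compound pin-transferred, 24 hr at 37 deg C, 5% CO2; luminescent read-out.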
Mito fusion yeast = blocks mitochondrial division or promotes mitochondrial fusion. Potency, µM (titrated, usually from 46.1 µM), without a hit: at the highest dose growth rescue (activation), most hits filed as activators. 320,000 compounds, 0.23% hits. AID 485298. S. cerevisiae fusion-defective mutant growth rescue, CellTiterGlo 48 h; note: potency is the fitted concentration of half-maximal effect; % of control where 0% means no effect; nearly all actives have a fitted effect of over 45% in size
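Growth-rescue viability read-out: after 48 h at the non-permissive 37C in glycerol/ethanol YPEG, yeast mitochondrial fusion mutants are measured by CellTiterGlo luminescence; compounds (23 nl pinned per well) restoring growth score as division inhibitors or fusion activators.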
miR-21 reporter = raises the signal of a miR-21 reporter | Potency, µM (highest dose often 38.3 µM), without a hit: at the top dose reporter change, positive = more light | HeLa miR-21 FLuc reporter, luciferase, 48 h | 340,000 tested, under 10 active; active = well fitted rising curve with a large enough effect; inconclusive = small, poorly fitted or top-dose-only effect; inactive = no such curve, though single readings can be large or run the other way;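 further: % of control where 0% means no effect; miR-21 action dims this reporter so a rising signal means less miR-21 action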
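Luminescence from a firefly luciferase reporter carrying a miR-21 binding site downstream, stably expressed under a CMV promoter in HeLa cells that make miR-21 endogenously, reports miRNA modulation after 48 h compound exposure up to approximately 40uM final.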
Nrf2 inh = blocks Nrf2 signaling | A549 ARE-Fluc reporter, luciferase luminescence, 18-24 h | Potency, µM (doses to about 46 µM), for inactives: at the highest dose activity change, negative = inhibition, actives largely listed as inhibitors | 360,000 compounds, 2.1% hits; note: potency is the fitted concentration of half-maximal effect; % is set by controls: 0 for no effect and ±100 for the full control effect; nearly all actives have a fitted effect of over 60% in size
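Nrf2 function is reported as luminescence of an ARE-controlled luciferase in A549 cells. Compounds were tested at several concentrations, and a CellTiter-Fluor read on the same wells flagged cytotoxicity.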
A549 viability = counter-screen for Nrf2 inhibitors: cytotoxicity in A549 cells; A549 ARE-Fluc cells, CellTiter-Fluor viability, 18-24 h; 390,000 compounds, 0.16% hits; Potency, µM (highest dose often 46 µM), inactives show top-dose activity change, negative = cytotoxicity, hits mostly inhibitors; note: potency is the fitted concentration of half-maximal effect; % is set by controls: 0 for no effect and ±100 for the full control effect
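Cytotoxicity counterscreen: CellTiter-Fluor fluorescence was measured in A549 ARE_Fluc cells after 18-24 h of compound exposure in a concentration series. The subsequent BugLite luminescent read reports ARE-luciferase activity.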
Starred values were filed as active, the others as inactive. Unless noted, calls come from the whole dose curve; as a rule, active = well fitted curve in the direction sought with a large enough effect; inconclusive = small, poorly fitted or top-dose-only effect, or another doubt; inactive = no such curve, though single readings can be large; an effect the other way counts as inactive or inconclusive.

Screening Cn1c2ccccc2c(=O)c2ccc(NCc3ccc4c(c3)OCO4)cc21 returned Nrf2 activator 7%, Nrf2 inh 26µM* and A549 viability -31%.
`O=c1[nH]c(CN2CCN(S(=O)(=O)/C=C/c3ccccc3)CC2)nc2cc(Cl)ccc12` gave Nrf2 activator 0%, Mito fusion yeast 11%, miR-21 reporter 22%, Nrf2 inh 16µM* and A549 viability -20%.
CCOc1ccc(CNC(=O)Cn2nc(C)c3nn(-c4ccc(Cl)cc4)c(C)c3c2=O)cc1OC was read as Nrf2 activator -1%, miR-21 reporter 1% and A549 viability -13%.
For O=C(N/N=C\c1ccc(CNS(=O)(=O)c2ccc(Cl)cc2)o1)C(=O)Nc1ccc(Oc2ccccc2)cc1 the results were Nrf2 activator -1%, Mito fusion yeast 0%, miR-21 reporter -11%, Nrf2 inh 16µM* and A549 viability inconclusive.
Screening c1nc(NCCc2cnc[nH]2)c2cc(-c3ccc4c(c3)OCO4)ccc2n1 returned Nrf2 inh 8% and A549 viability -1%.
For CC1CCc2c(sc(NC(=O)CSc3ncn[nH]3)c2C#N)C1 (stereo not drawn) the results were Nrf2 activator -3%, Mito fusion yeast 10%, miR-21 reporter inconclusive, Nrf2 inh 7.3µM* and A549 viability -10%.
`N#Cc1c(NC(=O)CSc2ncn[nH]2)sc2c1CCCC2` gave Nrf2 activator -2%, Mito fusion yeast 1%, miR-21 reporter inconclusive, Nrf2 inh 4.1µM* and A549 viability -6%.
CC(C)(C)C1CCc2c(sc(NC(=O)CSc3ncn[nH]3)c2C#N)C1 (stereo not drawn) was read as Nrf2 activator -1%, Mito fusion yeast 0%, miR-21 reporter 2%, Nrf2 inh inconclusive and A549 viability inconclusive.
Cc1cc(C)c(NC(=O)c2sc3nc4c(cc3c2N)C(=O)CC(C)(C)C4)c(C)c1 was read as Nrf2 activator 0%, Mito fusion yeast 13µM*, miR-21 reporter -12%, Nrf2 inh inconclusive and A549 viability 24%.
For COC(=O)c1sc2nc3c(cc2c1N)C(=O)CC(C)(C)C3 the results were Nrf2 activator 0%, Mito fusion yeast -1%, miR-21 reporter -9%, Nrf2 inh 11% and A549 viability 1%.
Screening Cc1cc(C)cc(OCC(=O)N2CCC(c3nc4ccccc4o3)CC2)c1 returned Nrf2 activator 7%, miR-21 reporter -4%, Nrf2 inh 2% and A549 viability -5%.
Screening CC(Cc1cccs1)NC(=S)Nc1ccc(Cl)cc1 (stereo not drawn) returned Nrf2 activator 0%, Mito fusion yeast 15%, miR-21 reporter -5%, Nrf2 inh 18µM* and A549 viability -16%.
O=C(CCl)NCCCCCCCCCNC(=O)CCl was read as Nrf2 activator 11µM*, Mito fusion yeast -16%, miR-21 reporter inconclusive, Nrf2 inh -13% and A549 viability inconclusive.
`CCC(=O)NCCCCCCNC(=O)CC` gave Nrf2 activator 0%, Mito fusion yeast 1%, miR-21 reporter -2%, Nrf2 inh 8% and A549 viability -1%.
Screening CCCOc1cccc(C(=O)Nc2cc(-c3ccccc3)no2)c1 returned Nrf2 activator 8%, miR-21 reporter -18%, Nrf2 inh inconclusive and A549 viability -8%.
Screening Cc1c(C(=O)N2CCC(C)CC2)c(S(=O)(=O)N2CCN(c3cccc(Cl)c3)CC2)c(C)n1C returned Nrf2 activator 0%, miR-21 reporter -2% and A549 viability 0%.
Screening O=C1NC(c2ccccc2)=N/C1=C/c1ccco1 returned Nrf2 activator 4µM*, Mito fusion yeast 2%, miR-21 reporter -56%, Nrf2 inh inconclusive and A549 viability -11%.
`O=C1NC(c2ccccc2Br)=N/C1=C\c1ccco1` gave Nrf2 activator 5.6µM*, Mito fusion yeast -4%, miR-21 reporter -52%, Nrf2 inh 17% and A549 viability -6%.
Screening O=C1NC(c2cccc(Br)c2)=N/C1=C\c1ccco1 returned Nrf2 activator 8.9µM*, Mito fusion yeast 4%, miR-21 reporter -55%, Nrf2 inh inconclusive and A549 viability -13%.

Entries listed so far that contain bromine (2):
`O=C1NC(c2ccccc2Br)=N/C1=C\c1ccco1` gave Nrf2 activator 5.6µM*, Mito fusion yeast -4%, miR-21 reporter -52%, Nrf2 inh 17% and A549 viability -6%.
Screening O=C1NC(c2cccc(Br)c2)=N/C1=C\c1ccco1 returned Nrf2 activator 8.9µM*, Mito fusion yeast 4%, miR-21 reporter -55%, Nrf2 inh inconclusive and A549 viability -13%.

Bioassay records from PubChem.
